One data set concerns the target S1P1 receptor (Homo sapiens, UniProt P21453). As to the kind of experiment: General S1P1 receptor agonist activity, CHO cells expressing S1P1 receptor (method of Experimental Example 1 of PTL 1). It is filed as cell-based. To be noted: read-out: S1P1 receptor agonist activity, method of PTL 1.
Data set [1] addresses S1P1 receptor coupled to Gαi1 (Homo sapiens, UniProt P21453). As to the kind of experiment: Gα subtype-specific S1P1 receptor agonist activity (BRET, NPL 7), HEK 293T cells co-expressing S1P1 receptor, Gαi1, Gγ2 and Gβ1. The format is cell-based. Particulars: read-out: EC50 S1P1-Gαi1, Gαi1 expressed. (In general: Bioluminescence resonance energy transfer reports proximity on the nanometre scale.)

The chains behind the UniProt entries cited, without tags or fusion partners. Residues count along the entry.
UniProt P21453, whole entry: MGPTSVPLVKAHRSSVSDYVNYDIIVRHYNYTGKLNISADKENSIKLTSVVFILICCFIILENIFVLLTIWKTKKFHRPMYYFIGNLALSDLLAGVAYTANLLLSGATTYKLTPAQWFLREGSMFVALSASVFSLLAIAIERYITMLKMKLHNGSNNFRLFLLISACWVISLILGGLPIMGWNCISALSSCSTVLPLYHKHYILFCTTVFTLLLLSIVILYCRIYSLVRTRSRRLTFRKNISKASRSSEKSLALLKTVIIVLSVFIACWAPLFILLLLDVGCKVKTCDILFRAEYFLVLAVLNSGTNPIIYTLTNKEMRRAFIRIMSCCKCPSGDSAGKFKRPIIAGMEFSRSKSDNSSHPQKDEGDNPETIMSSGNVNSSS
UniProt P59768, 2-68 partner limits assumed: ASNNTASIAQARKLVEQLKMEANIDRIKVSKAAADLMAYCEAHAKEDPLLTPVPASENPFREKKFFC
UniProt P62873, 2-340 partner limits assumed: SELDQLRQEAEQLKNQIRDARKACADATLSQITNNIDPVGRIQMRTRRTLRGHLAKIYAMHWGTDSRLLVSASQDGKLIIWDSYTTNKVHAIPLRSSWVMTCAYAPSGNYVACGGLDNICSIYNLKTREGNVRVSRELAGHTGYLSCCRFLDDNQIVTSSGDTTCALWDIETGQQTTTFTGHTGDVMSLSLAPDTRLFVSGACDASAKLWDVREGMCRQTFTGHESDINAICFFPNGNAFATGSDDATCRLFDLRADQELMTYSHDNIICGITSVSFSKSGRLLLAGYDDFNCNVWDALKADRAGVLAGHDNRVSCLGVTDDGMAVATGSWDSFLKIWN
UniProt P08754, 2-354 partner limits assumed: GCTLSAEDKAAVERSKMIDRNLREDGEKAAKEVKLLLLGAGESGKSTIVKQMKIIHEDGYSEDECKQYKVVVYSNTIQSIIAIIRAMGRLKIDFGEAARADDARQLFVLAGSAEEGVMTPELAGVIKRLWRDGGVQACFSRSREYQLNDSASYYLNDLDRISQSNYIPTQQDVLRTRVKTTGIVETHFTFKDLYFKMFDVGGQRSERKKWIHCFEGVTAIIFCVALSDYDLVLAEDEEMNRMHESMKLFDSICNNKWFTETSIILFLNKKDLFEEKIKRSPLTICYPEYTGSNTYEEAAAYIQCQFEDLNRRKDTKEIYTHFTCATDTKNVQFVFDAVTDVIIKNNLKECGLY
UniProt P04899, 2-355 partner limits assumed: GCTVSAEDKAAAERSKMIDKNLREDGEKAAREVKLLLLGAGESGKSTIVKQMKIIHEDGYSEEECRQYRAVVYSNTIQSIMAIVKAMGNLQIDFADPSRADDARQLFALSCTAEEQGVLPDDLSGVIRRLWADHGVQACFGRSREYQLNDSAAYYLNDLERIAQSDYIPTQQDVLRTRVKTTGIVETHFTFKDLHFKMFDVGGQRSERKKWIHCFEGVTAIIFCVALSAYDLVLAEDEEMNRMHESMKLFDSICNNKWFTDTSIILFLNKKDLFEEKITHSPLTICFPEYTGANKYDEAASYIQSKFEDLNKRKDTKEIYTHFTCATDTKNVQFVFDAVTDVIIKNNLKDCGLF
UniProt P63096, 2-354 partner limits assumed: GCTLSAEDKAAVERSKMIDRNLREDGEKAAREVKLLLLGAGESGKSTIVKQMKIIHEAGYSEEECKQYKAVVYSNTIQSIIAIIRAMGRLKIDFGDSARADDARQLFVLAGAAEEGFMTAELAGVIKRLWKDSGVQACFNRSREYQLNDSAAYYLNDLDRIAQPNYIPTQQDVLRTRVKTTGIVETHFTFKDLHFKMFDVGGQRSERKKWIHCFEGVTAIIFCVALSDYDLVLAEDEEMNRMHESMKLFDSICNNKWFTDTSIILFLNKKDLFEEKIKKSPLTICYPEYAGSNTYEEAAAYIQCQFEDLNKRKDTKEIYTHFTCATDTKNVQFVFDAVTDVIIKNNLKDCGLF

Data set [2] concerns the target S1P1 receptor coupled to Gαi2 (Homo sapiens, UniProt P21453). Kind of data set: Gα subtype-specific S1P1 receptor agonist activity (BRET, NPL 7), HEK 293T cells co-expressing S1P1 receptor, Gαi2, Gγ2 and Gβ1. The format is cell-based. Particulars: read-out: EC50 S1P1-Gαi2, Gαi2 expressed.
The target in data set [3] is S1P1 receptor coupled to Gαi3 (Homo sapiens, UniProt P21453). Kind of data set: Gα subtype-specific S1P1 receptor agonist activity (BRET, NPL 7), HEK 293T cells co-expressing S1P1 receptor, Gαi3, Gγ2 and Gβ1. The format is cell-based. To be noted: read-out: EC50 S1P1-Gαi3, Gαi3 expressed.
Data set [4] has as its system number of lymphocytic cells in blood. As to the kind of experiment: Efficacy evaluation: number of lymphocytic cells in blood after oral administration. To be noted: male SD rats.
A further data set deals with complete AV block. As to the kind of experiment: Cardiotoxicity evaluation: AV block in guinea pigs under anesthesia. To be noted: anesthetized guinea pigs, 0.01 mg/kg by infusion for 10 minutes, four cases.
The nature of data set [5]: Blood concentration in the guinea pig cardiotoxicity model. Particulars: guinea pigs, 0.01 mg/kg infusion for 10 minutes.

SMILES strings stand for the structures.

As for `CCCc1ccc(COc2ccc3c(c2)CCC(CN2CC(C(=O)O)C2)=C3C)c(OC)c1`, the EC50 at S1P1 receptor is 0.3 nM; in data set [1], 98 nM; in data set [2], 11 nM; in data set [3], 85 nM.

In the case of `CC(C)Oc1ccc(-c2cnc(-c3ccc(CN4CC(C(=O)O)C4)cc3)s2)cc1`, the EC50 on S1P1 receptor was found to be 9.2 nM; in data set [1], 640 nM; in data set [2], 6 nM; in data set [3], 19 nM. In addition, the “dose for suppressing the number of lymphocytic cells by 50% (ED50) after 6 hours” value in data set [4] (6 hours) was 0.17 mg/kg. Also, the “dose for suppressing the number of lymphocytic cells by 50% (ED50) after 24 hours” value in data set [4] (24 hours) is listed as 0.65 mg/kg. Further, the “effective blood concentration after 24 hours” value in data set [4] (24 hours, calculated) was 176 nM. Moreover, the “expression of complete AV block (cases)” value with complete AV block is recorded as “no expression of complete AV block was observed in any one out of four cases”. Moreover, in data set [5] (after 1 hour), the “blood concentration after 1 hour” value is 27 nM. In addition, the “blood concentration when the administration was completed” value in data set [5] (end of administration) is recorded as 91 nM.

These data come from patent US9885703B2, “Evaluation method and screening method for sphingosine-1-phosphate 1 (S1P1) receptor agonists” (MEIJI SEIKA PHARMA CO., LTD., priority 2013, dated 2018).
